# Earlier results in US20120015919A1, “THERAPIES FOR TREATING CANCER USING COMBINATIONS OF COX-2 INHIBITORS AND AROMATASE INHIBITORS OR COMBINATIONS OF COX-2 INHIBITORS AND ESTROGEN RECEPTOR ANTAGONISTS” (Tragara Pharmaceuticals, Inc., priority 2007, published 2012).
# Protein sequences, listed by entry. Tags and fused reporters are not part of them.
# UniProt P03372, whole entry: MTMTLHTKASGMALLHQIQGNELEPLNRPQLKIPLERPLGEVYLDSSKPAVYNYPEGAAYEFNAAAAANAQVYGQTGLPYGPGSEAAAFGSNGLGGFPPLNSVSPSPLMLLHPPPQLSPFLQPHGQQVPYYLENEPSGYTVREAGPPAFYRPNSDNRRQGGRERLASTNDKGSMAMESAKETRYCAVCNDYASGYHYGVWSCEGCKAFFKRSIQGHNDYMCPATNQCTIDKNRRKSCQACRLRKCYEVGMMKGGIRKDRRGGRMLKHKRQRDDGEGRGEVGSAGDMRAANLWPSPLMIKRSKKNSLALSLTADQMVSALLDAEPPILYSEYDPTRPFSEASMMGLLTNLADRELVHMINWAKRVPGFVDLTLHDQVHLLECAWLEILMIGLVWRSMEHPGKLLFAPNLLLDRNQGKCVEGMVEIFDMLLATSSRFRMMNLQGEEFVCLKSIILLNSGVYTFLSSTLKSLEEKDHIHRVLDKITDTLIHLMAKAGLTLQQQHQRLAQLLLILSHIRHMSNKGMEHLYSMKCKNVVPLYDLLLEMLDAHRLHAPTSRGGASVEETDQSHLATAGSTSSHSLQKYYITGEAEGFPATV
# Tests used:
# estrogen receptor = estrogen receptor (Homo sapiens, UniProt P03372); conditions: relative to estradiol; cited from earlier work
# [1] = test system: HER2-positive breast cancer cell lines (BT474 and SKBR3); conditions: cited from earlier work
Molecule,affinity for the estrogen receptor (estrogen receptor),cells in G0/G1 arrest following trastuzumab exposure ([1]; trastuzumab-resistant cells) [%],cells in S-phase following trastuzumab exposure ([1]; trastuzumab-resistant cells) [%],cells in G0/G1 arrest following trastuzumab exposure ([1]; trastuzumab-sensitive cells) [%]
C[C@]12CC[C@@H]3c4ccc(O)cc4C[C@@H](CCCCCCCCC[S+]([O-])CCCC(F)(F)C(F)(F)F)[C@H]3[C@@H]1CC[C@@H]2O (stereo partly shown) [Fulvestrant],comparable to estradiol,–,–,–
trastuzumab: monoclonal antibody that blocks the effects of the growth factor protein HER2,–,68,14,84

# Like-named read-outs stand apart in the source and are kept apart here.
